Assay results reported in publication PMC4291147, “Molecular Basis of Histone Tail Recognition by Human TIP5 PHD Finger and Bromodomain of the Chromatin Remodeling Complex NoRC” (Structure(London, England:1993), 2015).

Target: T1, TIP5 BRD (Homo sapiens, UniProt Q9UIF9)
T1 construct: (residues 1797- 1899 for TIP5, residues); hexa-histidine (pNIC28-Bsa4, TEV site) (N, cleaved yes); made in house; host or cells: E. coli BL21(DE3) Rosetta or BL21(DE3)-R3-pRARE2
T1 sequence (Q9UIF9 1797-1899): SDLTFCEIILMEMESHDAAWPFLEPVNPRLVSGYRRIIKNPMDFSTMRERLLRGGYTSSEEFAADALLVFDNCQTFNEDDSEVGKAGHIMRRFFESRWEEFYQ
Assay: ITC, histone peptide binding to TIP5 BRD
Description: All calorimetric experiments were performed on an ITC200 or VP-ITC microcalorimeters (MicroCal). […] The data were analyzed with the MicroCal ORIGIN software package using, in most cases, a single binding site model. The first data point was excluded from the analysis. […]
The cDNAs encoding tandem PHD zinc finger and bromodomain of human TIP5 […]
GeneBank: Q9UIF8) were synthesized by GenScript with codons optimized f or E. coli. expression and were subcloned into a modif ied pET15 vector using NdeI/XhoI sites f or expression as recombinant proteins with a His6 tag fused with small ubiquitin like modifier (SUMO)-1 fusion tag at the N terminus. cDNA sequences were used as a […]
Single PHD zinc f ingers were introduced into the same modif ied SUMO tagged plasmid whereas single bromodomains were f urther subcloned into pET28 derived expression vectors, pNIC28- Bsa4 using ligation independent […]
Protein Expression and Purification […]
competent BL21(DE3) Rosetta cells (Invitrogen) or into BL21 (DE3)-R3-pRARE2 cells (phage- resistant derivative with a pRARE plasmid encoding rare codon tRNAs). Cells were grown at 37 °C in Terrific Broth (Sigma) from overnight cultures until A600 reached between 0.6- 0.8, then the media was cooled and 0.2 mM isopropyl-β-Dthiogalactopyranoside (IPTG) was added to induce the protein expression at 20 °C f or 16 hours. […]

CC(=O)NCCCC[C@H](NC(=O)CNC(=O)CNC(=O)[C@H](CCCCNC(C)=O)NC(=O)CNC(=O)[C@H](CCCNC(=N)N)NC(=O)CNC(=O)[C@@H](N)CO)C(=O)NCC(=O)N[C@@H](CC(C)C)C(=O)O [H4(1–10)K5acK8ac]
Kd: 65.91 ± 0.46 µM
